For series [1], the system named is SK-MEL-1 human melanoma cells. Put plainly: Formation of tumor induced blood vessels in nude mice carrying SK-MEL-1 tumors. It counts as in vivo.
In series [2] the test system is human MDA-MB-468 breast carcinoma tumors. Put plainly: MDA-MB-468 breast carcinoma tumor volume in nude mice. The series is classed as in vivo. To be noted: MDA-MB-468 tumors in nude mice; versus IFN-beta-1a or vehicle control; FIG. 13C.
Series [3] deals with A375 human melanoma cells. Put plainly: A-375 melanoma tumor volume in nude mice. It counts as in vivo.
In another series the test system is WM-266-4 melanoma cells. Briefly: WM-266-4 melanoma tumor volume in nude mice. It counts as in vivo.
For series [4], the system named is SW620 colon carcinoma cells. Put plainly: SW-620 colon carcinoma tumor volume in nude mice. The series is classed as in vivo. The following applies: 0.4, 0.8 and 1.6 mg/kg subcutaneously BIW for 4 weeks, FIG. 10.
Series [5] has as its system MDA-MB-231 breast carcinoma cells. Put plainly: MDA-MB-231 breast carcinoma tumor volume in SCID mice. It counts as in vivo. To be noted: paclitaxel 25 mg/kg I.P. q4d x 3, pegylated interferon beta 1a 0.4 to 1.6 mg/kg SC BIW. The protocol: 8-10 week old SCID mice from Charles River Labs were inoculated subcutaneously with 5×10^6 MDA-MB-231 breast carcinoma cells with 50% matrigel in the flank region. When the average tumor volumes reached approximately 200 mm^3 the tumor-bearing mice were randomized to treatment groups. Pegylated IFN-1a was provided in 20 mM acetic acid/sodium acetate at a pH of 4.8 and 150 mM arginine/HCl (4.8A buffer). Paclitaxel was provided in a Cremophor Ethanol Saline mixture (CES buffer).

A short description of series [6]: Half-life of pegylated IFN-beta-1a in nude mice. The series is classed as in vivo.
Series [7] deals with SN12C renal carcinoma cells. Put plainly: SN12C renal carcinoma tumor volume in SCID mice. It counts as in vivo. The following applies: dosed at 0.8 mg/kg and 1.6 mg/kg.
The subject of the next series is murine (L929) cells. Briefly: Activity of human IFN-beta-1a on murine cells (species specificity). The series is classed as cell-based. To be noted: at concentrations 10-fold greater than required for full activity of murine IFN-beta.

With “pegylated IFN-beta-1a: Interferon beta-1a modified at the N-terminal α-amino group with a single, linear 20 kDa mPEG-O-2-methylpropionaldehyde group”, the “formation of tumor induced blood vessels, multiple dose study” value in series [1] (10 μg (1 MU) once on day 1 versus 5 μg (1 MU) IFN-beta-1a daily on days 1-9, FIG. 1B) is on record as “comparable (slightly superior) to IFN-beta-1a given daily on days 1-9”. Further, the “formation of tumor induced blood vessels, single dose study” value in [1] (10 μg (1 MU) once on day 1 versus 5 μg (1 MU) IFN-beta-1a once on day 1, FIG. 1A) was “more effective than IFN-beta-1a given once on day 1”. In addition, in series [1] (SK-MEL-1 tumors, vessels entering tumor periphery counted day 10, versus control and IFN-beta-1a), the “formation of tumor induced blood vessels” value is “significantly more effective at reducing formation of tumor induced blood vessels”. Moreover, in [2], the “inhibition of tumor growth” value is reported as “greater inhibition of tumor growth compared to mice treated with IFN-beta-1a or vehicle control”. In addition, the “tumor growth inhibition, 1.6 mg/kg versus 0.4 or 0.8 mg/kg” value in [3] (1.6 mg/kg (data not shown)) is “even larger tumor growth inhibition”. In addition, the “tumor growth inhibition, dose response” value in [3] (0.1, 0.2, 0.4, 0.8 or 1.6 mg/kg S.C. BIW x 4 weeks (data not shown)) was “tumor growth inhibition increases in mice as the dosages increase”. The “tumor growth inhibition, 0.4 versus 0.8 mg/kg” value in series [3] (0.4 or 0.8 mg/kg (data not shown)) is “almost similar”. In addition, the “tumor inhibition/regression on drug and upon tumor regrowth” value is “dose-dependent tumor inhibition/regression” in the series with WM-266-4 melanoma cells (WM-266-4 (200 mm3), 0.4, 0.8 or 1.6 mg/kg QW, BIW or TIW for 4 weeks, FIGS. 17A-C) and “dose-dependent tumor inhibition/regression” with WM-266-4 melanoma cells (WM-266-4 (400 cubic mm), 0.1, 0.2, 0.4, 0.8 mg/kg SC BIW for 4 weeks, FIG. 16). Also, in the series on WM-266-4 melanoma cells (WM-266-4 large tumors (2000-2400 cubic mm), 0.8 or 1.6 mg/kg BIWX4 from day 46, FIG. 18), the “effect on large tumors” value was “Tumor regression”. The “inhibition of tumor growth, dose response” value in [4] is “dose dependent”. The “inhibition of tumor growth, single agent versus vehicle controls” value in series [5] is given as “greater inhibition of tumor growth compared to mice treated with either vehicle controls”. The half-life entry in [6] is “approximately 10 hours”. Also, the “tumor growth inhibition compared to its vehicle” value in series [7] is given as “statistically significant tumor growth inhibition in a dose dependent manner”.

B1: human IFN-beta-1a: human interferon-beta glycosylated at residue 80 (Asn 80), derived via recombinant DNA technologies (protein, UniProt P01574 22-187, looked up)
Interferon beta: MSYNLLGFLQRSSNFQCQKLLWQLNGRLEYCLKDRMNFDIPEEIKQLQQFQKEDAALTIYEMLQNIFAIFRQDSSSTGWNETIVENLLANVYHQINHLKTVLEEKLEKEDFTRGKLMSSLHLKRYYGRILHYLKAKEYSHCAWTIVRVEILRNFYFINRLTGYLRN
As for B1, in the series with murine (L929) cells, the “activity on murine (L929) cells” value is on record as “not active”.

The values above are taken from patent US20120082647A1, “INTERFERON-BETA FOR USE AS MONOTHERAPY OR IN COMBINATION WITH OTHER CANCER THERAPIES” (priority 2010, published 2012).
